Patent US9776995B2, “Bicyclic sulfonamide compounds as sodium channel inhibitors” (AMGEN INC., priority 2013, dated 2017)
pIC50: −log10 of the molar value.

By UniProt entry, the sequences of proteins in these tests, tags left out.
UniProt Q15858, whole entry: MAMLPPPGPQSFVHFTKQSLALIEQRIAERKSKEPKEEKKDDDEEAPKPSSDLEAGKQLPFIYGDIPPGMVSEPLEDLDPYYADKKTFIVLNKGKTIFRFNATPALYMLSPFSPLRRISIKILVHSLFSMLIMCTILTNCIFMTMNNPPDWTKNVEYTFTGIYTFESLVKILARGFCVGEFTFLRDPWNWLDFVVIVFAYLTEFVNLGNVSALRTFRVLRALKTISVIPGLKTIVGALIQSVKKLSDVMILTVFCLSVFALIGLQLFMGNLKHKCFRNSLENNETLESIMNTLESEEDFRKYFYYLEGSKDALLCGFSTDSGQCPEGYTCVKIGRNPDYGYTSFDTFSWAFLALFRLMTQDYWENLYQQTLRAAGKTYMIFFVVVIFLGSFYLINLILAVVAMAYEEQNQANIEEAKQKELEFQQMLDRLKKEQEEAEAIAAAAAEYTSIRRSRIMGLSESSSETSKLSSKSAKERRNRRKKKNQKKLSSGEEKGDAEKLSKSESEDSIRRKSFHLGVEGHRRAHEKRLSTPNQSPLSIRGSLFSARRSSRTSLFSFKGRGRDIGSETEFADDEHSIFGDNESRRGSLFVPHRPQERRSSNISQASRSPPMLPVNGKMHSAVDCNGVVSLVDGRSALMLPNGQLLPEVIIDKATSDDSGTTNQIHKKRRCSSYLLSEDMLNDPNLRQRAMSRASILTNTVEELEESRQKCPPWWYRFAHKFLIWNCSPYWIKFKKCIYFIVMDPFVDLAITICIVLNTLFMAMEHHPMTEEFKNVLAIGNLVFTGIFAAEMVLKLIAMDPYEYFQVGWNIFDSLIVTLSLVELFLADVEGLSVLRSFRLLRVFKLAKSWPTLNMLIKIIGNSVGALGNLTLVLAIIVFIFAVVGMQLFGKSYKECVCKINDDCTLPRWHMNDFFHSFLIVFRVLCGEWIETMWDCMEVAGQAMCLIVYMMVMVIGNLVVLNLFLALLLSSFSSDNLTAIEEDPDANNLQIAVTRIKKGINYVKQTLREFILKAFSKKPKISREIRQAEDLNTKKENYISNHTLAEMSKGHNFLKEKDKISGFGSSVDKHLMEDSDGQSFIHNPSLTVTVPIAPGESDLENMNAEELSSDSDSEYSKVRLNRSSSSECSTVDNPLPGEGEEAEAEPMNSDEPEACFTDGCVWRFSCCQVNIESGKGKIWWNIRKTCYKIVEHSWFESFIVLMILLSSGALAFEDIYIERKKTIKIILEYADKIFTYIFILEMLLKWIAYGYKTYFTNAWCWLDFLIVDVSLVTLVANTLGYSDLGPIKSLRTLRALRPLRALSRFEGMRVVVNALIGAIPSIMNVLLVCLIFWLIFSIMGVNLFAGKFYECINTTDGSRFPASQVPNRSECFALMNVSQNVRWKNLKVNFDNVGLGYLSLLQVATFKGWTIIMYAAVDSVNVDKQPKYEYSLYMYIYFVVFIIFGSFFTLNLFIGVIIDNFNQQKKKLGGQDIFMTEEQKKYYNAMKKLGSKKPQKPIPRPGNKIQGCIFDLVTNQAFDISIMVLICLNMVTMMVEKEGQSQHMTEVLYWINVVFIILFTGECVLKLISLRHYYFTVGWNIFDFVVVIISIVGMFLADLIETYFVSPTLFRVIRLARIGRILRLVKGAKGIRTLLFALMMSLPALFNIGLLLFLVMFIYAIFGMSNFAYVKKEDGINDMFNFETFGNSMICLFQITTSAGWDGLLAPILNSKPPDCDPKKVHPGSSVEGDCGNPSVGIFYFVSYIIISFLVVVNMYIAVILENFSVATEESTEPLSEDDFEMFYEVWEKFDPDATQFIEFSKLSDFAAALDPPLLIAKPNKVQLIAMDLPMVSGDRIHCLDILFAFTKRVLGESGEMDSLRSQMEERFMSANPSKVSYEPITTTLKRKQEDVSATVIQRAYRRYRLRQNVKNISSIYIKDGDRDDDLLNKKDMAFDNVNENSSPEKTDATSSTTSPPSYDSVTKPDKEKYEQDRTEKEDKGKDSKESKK

Target: Nav 1.7 (Homo sapiens (Human), UniProt Q15858)
Assay: in-vitro Nav 1.7 PX data
Type: cell-based

In the case of `COc1cc(-c2ccc(C)c(F)c2)c(C#N)cc1-c1nccc2cc(S(=O)(=O)Nc3ccon3)ccc12` [Example 81, 1-(2-cyano-3′-fluoro-5-methoxy-4′-methyl-4-biphenylyl)-N-3-isoxazolyl-6-isoquinolinesulfonamide], the pIC50 (PatchXpress (PX), in vitro) was 7.04.
`COc1cc(-c2cc(C)cc(F)c2)c(C#N)cc1-c1nccc2cc(S(=O)(=O)Nc3ccncn3)ccc12` [Example 164, 1-(2-cyano-3′-fluoro-5-methoxy-5′-methyl-4-biphenylyl)-N-4-pyrimidinyl-6-isoquinolinesulfonamide] gave a pIC50 (in-vitro Nav 1.7 PX data) of 7.03.
`COc1cc(-c2cc(C)c(C)cc2C)c(C#N)cc1-c1nccc2cc(S(=O)(=O)Nc3ccncn3)ccc12` [Example 165, 1-(2-cyano-5-methoxy-2′,4′,5′-trimethyl-4-biphenylyl)-N-4-pyrimidinyl-6-isoquinolinesulfonamide] gave a pIC50 (in-vitro Nav 1.7 PX data) of 7.51.
For `COc1ccc(F)cc1-c1cc(OC)c(-c2ncnc3cc(S(=O)(=O)Nc4ccon4)ccc23)cc1C` [Example 191, 4-(5′-fluoro-2′,5-dimethoxy-2-methyl-4-biphenylyl)-N-3-isoxazolyl-7-quinazolinesulfonamide], the pIC50 (in-vitro PX (PatchXpress) data) was 7.35.
`COc1cc(-c2cccc(F)c2)c(Cl)cc1-c1ncnc2cc(S(=O)(=O)Nc3ccon3)ccc12` [Example 227, 4-(2-chloro-3′-fluoro-5-methoxy-4-biphenylyl)-N-3-isoxazolyl-7-quinazolinesulfonamide] showed a pIC50 (in-vitro PX) of 7.43.
With `COc1cc(-c2ccc(Cl)c(C)c2)c(C#N)cc1-c1nccc2cc(S(=O)(=O)Nc3nncs3)ccc12` [Example 228, 1-(4′-chloro-2-cyano-5-methoxy-3′-methyl-4-biphenylyl)-N-1,3,4-thiadiazol-2-yl-6-isoquinolinesulfonamide] the pIC50 (in-vitro PX) was 7.88.
`COc1cc(-c2cccc(C(F)(F)F)c2)c(F)cc1-c1nn(C)c(=O)c2cc(S(=O)(=O)Nc3nncs3)ccc12` [Example 234, 1-(2-fluoro-5-methoxy-3′-(trifluoromethyl)-4-biphenylyl)-3-methyl-4-oxo-N-1,3,4-thiadiazol-2-yl-3,4-dihydro-6-phthalazinesulfonamide] gave a pIC50 (in-vitro PX) of 7.11.
